Experimental data as given in US20080008771A1, “Nitric Oxide Dioxygenase Inhibitors” (priority 2004, published 2008).

Tested on: microsomal NO metabolism (Caco-2 microsomes)

Substance: Sn(IV)-protoporphyrin IX [Sn4+-protoporphyrin]
- Effect of porphyrins on microsomal NO metabolism: but not
